Patent US20130079309A1 (published 2013)

Protein sequences, listed by entry. Tags and fused reporters are not part of them. Lines headed by an entry give the natural chain unless they say otherwise; changes in a name come on top.
UniProt P21453, whole entry: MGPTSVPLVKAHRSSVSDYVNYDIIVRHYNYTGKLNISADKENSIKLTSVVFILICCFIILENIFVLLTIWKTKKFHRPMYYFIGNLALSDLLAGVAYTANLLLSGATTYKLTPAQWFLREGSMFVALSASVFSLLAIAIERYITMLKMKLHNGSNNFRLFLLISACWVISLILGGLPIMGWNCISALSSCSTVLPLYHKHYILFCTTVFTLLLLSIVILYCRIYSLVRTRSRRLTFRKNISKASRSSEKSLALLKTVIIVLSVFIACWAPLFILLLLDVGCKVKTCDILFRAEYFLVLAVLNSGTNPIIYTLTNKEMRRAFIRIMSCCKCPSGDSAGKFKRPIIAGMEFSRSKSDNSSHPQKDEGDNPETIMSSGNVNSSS

Columns and labels:
S1P receptor 1 (S1PR1) [1] = target: T1, S1P receptor 1 (S1PR1) (Homo sapiens, UniProt P21453); assay: S1PR1 protein expression in HPAEC by Western blot; type: cell-based
S1P receptor 1 (S1PR1) [2] = target: T1, S1P receptor 1 (S1PR1); assay: Ubiquitination of S1PR1 in HPAEC (immunoprecipitation, ubiquitin Ab); conditions: 1 μM

SMILES: CCCCCCCCc1ccc(CCC(N)(CO)COP(=O)(O)O)cc1 (stereo not shown) [p-FTY]
- S1PR1 expression level compared to control (S1P receptor 1 (S1PR1) [1]; 1 μM (SEW2871 10 μM), 4 h): 17.7%
- S1PR1 expression, agonist without MG132 (S1P receptor 1 (S1PR1) [1]; 1 μM, 4 h (FIG. 18)): 51.8%
- S1PR1 expression, agonist after MG132 pretreatment (S1P receptor 1 (S1PR1) [1]; MG132 10 μM 2 h, then 1 μM agonist 4 h): 80.3%
- ubiquitination of S1PR1 at 1 h (S1P receptor 1 (S1PR1) [2]): significant ubiquitination
